# Values quoted from earlier work in patent publication US20120088773A1, “Circadian rhythm modulation” (priority 2010, published 2012).
# Settings: adults, several months; (50,000 IU)/day; Merck manual
substance,measurement,value
vitamin D,dose that can produce toxicity,1250 µg/day
